Source: US20250144187A1, “COMBINATION OF HYDROLASES AND ANTI-MICROORGANISM DRUGS AND USES THEREOF” (CENTRE FOR EYE AND VISION RESEARCH LIMITED, priority 2023, published 2025)

System: ARPE-19, NIH/3T3 and 293T cells
Experiment: Toxicities analysis on lysozyme and oxazolidinone-class antibiotics
Settings: exposure 12 hours and 24 hours

With `Cn1nnc(-c2ccc(-c3ccc(N4C[C@H](COP(=O)(O)O)OC4=O)cc3F)cn2)n1` [tedizolid phosphate, Tedizolid Phosphate] the “sensitivity of cell lines (toxicity)” value was “insensitive”.
